This note sets out measurements from patent publication US9439979B2, “Epidermal growth factor receptor (EGFR) and methods of use in adenoviral-associated virus type 6 (AAV6) transduction” (priority 2010, dated 2016).

This test relates to 32D-EGFR cells. The experiment in a line: AAV internalization in 32D-EGFR cells (QPCR of vector genome). Conditions: AAV6 in 32D-EGFR cells, in the presence of gefitinib; 90 minutes at 37° C.

Regarding `COc1cc2ncnc(Nc3ccc(F)c(Cl)c3)c2cc1OCCCN1CCOCC1` [gefitinib], the “decrease of AAV internalization” value was “over 500%”.
